Laboratory results: PubChem BioAssay AID602147 (Vanderbilt Specialized Chemistry Center, 2011)
pIC50: −log10 of the molar value.

Amino acid sequences for entries named in this document (tags omitted). A change or cut given only in a name is not applied to a line headed by its entry.
UniProt O14939: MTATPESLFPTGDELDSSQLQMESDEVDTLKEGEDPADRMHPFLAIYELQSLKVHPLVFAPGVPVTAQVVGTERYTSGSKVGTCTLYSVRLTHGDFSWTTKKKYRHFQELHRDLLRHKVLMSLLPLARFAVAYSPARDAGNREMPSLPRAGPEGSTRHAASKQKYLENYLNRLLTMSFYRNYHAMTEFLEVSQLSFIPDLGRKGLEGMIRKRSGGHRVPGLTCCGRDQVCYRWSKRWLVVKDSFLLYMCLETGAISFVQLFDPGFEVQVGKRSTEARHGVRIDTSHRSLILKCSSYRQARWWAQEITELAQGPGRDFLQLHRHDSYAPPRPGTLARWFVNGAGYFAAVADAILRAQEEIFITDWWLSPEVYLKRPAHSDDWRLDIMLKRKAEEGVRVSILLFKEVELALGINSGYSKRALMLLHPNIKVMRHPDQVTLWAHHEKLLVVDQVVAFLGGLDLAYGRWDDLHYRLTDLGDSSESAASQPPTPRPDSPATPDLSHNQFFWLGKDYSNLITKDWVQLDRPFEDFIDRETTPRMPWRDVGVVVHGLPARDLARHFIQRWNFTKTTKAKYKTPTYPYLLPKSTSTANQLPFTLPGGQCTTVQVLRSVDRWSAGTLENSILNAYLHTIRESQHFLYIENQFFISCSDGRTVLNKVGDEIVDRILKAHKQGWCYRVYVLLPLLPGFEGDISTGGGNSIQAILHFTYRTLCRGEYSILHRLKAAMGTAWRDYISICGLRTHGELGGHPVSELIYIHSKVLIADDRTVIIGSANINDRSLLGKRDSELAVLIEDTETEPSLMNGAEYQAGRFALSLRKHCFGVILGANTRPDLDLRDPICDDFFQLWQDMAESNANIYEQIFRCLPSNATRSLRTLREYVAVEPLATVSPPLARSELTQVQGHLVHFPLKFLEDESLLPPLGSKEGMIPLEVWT

Target: Phospholipase D2 (Homo sapiens) (UniProt O14939)
Assay: cellular phospholipase D2 inhibition IC50 – cell-based, dose response (AID 602147)
Conditions: cellular PLD2 activity assay, concentration response

| SMILES | pIC50 |
| --- | --- |
| C[C@@H](CN1CCC2(CC1)C(=O)NCN2c1ccccc1)NC(=O)c1ccc2ccccc2c1 | 6.85 |
| O=C(NCCN1CCC2(CC1)C(=O)NCN2c1cccc(F)c1)c1ccc2ccccc2c1 | 7.70 |
